{"source": "paper PMC6118895", "about": "(Angewandte Chemie (International ed. in English), 2018)", "origin": "cited, not measured here", "tested_on": "EGFR Ex20Ins mutant-transfected Ba/F3 cells", "settings": "most EGFR Ex20Ins mutant-transfected Ba/F3 cells; cited from earlier work", "data": [{"smiles": "COc1cc2ncnc(Nc3ccc(F)c(Cl)c3)c2cc1OCCCN1CCOCC1", "note": "[gefitinib]", "values": [{"measurement": "Response of EGFR Ex20Ins mutant-transfected Ba/F3 cells", "value": "resistance"}]}]}
